# Reference: ChEMBL document CHEMBL3751772, “Fragments in bromodomain drug discovery” (Medchemcomm, 2015)
# Target: T1, Bromodomain and PHD finger-containing protein 3 (Homo sapiens, UniProt Q9ULD4)
# T1 sequence (Q9ULD4 whole entry): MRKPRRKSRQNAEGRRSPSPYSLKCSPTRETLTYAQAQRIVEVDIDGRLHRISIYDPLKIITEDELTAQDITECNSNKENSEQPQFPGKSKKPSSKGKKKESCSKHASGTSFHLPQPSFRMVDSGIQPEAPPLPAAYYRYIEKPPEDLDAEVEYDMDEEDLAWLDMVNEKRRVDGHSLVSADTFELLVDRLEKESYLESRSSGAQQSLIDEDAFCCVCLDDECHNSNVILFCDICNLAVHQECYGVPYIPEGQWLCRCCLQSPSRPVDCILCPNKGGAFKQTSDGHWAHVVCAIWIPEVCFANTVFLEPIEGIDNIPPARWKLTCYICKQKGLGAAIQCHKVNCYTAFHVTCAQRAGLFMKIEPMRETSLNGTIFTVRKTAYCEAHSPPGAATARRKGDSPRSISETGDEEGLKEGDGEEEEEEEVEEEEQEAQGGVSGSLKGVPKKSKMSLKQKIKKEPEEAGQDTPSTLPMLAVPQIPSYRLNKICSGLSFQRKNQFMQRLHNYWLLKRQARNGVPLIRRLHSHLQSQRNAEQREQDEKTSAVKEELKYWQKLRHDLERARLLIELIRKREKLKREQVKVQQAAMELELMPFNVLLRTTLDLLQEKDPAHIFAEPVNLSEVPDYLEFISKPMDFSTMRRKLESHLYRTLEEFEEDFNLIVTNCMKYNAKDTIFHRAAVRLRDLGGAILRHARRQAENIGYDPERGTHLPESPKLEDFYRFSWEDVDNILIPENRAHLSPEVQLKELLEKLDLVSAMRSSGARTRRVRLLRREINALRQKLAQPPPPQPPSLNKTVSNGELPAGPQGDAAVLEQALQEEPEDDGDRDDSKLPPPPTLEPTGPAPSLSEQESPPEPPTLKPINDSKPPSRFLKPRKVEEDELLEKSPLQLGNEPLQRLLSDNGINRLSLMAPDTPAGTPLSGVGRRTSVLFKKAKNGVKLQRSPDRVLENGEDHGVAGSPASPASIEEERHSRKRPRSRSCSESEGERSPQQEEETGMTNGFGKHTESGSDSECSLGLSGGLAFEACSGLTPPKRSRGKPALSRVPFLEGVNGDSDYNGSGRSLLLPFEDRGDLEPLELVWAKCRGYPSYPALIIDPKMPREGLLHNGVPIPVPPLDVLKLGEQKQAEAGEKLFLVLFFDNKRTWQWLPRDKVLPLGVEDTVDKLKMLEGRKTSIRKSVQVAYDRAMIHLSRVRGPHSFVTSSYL
# Assay: Binding affinity to BRPF3 (unknown origin) by isothermal titration calorimetry
smiles,measurement,value
COc1cc(C#N)ccc1S(=O)(=O)Nc1ccc2c(c1)cc(C)c(=O)n2C,Kd,408 nM
